{"source": "patent US20070027110A1", "about": "“Double salts of (-)-hydroxycitric acid with an amine and a group II a metal and a process for preparing the same” (priority 2004, published 2007)", "origin": "cited, not measured here", "details": "prior-art salt (Singh et al.)"}
{"substance": "calcium salt of HCA", "values": [{"measurement": "solubility in water", "value": "not very soluble in water"}]}
